Experimental data as given in ChEMBL document CHEMBL3862039, “Identification of Triptophenolide from Tripterygium wilfordii as a Pan-antagonist of Androgen Receptor” (ACS Med Chem Lett, 2016).

By UniProt entry, the sequences of proteins in these tests, tags left out. Where a name states a change or a piece, a line headed by the entry shows the natural chain unless it says otherwise.
UniProt P10275: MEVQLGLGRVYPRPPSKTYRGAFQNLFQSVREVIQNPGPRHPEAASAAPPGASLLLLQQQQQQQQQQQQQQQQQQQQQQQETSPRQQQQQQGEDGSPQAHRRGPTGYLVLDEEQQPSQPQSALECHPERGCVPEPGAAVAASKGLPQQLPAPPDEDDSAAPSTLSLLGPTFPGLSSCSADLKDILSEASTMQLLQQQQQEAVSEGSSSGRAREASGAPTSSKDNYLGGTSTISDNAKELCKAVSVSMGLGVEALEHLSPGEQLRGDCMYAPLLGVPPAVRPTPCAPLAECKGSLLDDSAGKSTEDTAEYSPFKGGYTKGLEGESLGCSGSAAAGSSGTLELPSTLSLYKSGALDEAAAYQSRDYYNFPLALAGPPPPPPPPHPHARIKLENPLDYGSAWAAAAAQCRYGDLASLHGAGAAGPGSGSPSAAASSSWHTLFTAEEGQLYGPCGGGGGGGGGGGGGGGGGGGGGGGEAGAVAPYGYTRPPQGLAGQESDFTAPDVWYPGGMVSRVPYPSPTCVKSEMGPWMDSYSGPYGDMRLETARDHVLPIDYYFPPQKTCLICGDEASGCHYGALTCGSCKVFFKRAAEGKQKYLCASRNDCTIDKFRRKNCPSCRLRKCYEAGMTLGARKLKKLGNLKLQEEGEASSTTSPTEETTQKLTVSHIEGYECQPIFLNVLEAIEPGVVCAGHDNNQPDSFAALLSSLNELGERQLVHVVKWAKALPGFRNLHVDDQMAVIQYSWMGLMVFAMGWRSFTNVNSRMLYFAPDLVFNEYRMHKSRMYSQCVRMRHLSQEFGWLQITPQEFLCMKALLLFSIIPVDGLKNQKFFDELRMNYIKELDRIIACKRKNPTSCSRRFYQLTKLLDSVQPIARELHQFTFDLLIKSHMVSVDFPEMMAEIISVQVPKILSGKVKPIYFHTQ

What was measured:
Androgen receptor = Androgen receptor (Homo sapiens, UniProt P10275); assay: Inhibition of DHT-induced AR nuclear translocation in human LNCAP cells assessed as reduction in ratio of nuclear to cytoplasmic AR levels at 5 uM after 24 hrs by DAPI-staining based confocal microscopic analysis relative DHT; assay type: cell-based
PC-3 = assay: Antagonist activity at AR W741C/T877A double mutant (unknown origin) transfected in human PC3 cells assessed as inhibition of DHT-induced receptor transcriptional activation after 24 hrs by PSA-luciferase reporter gene assay; assay type: cell-based

## CC(C)c1ccc2c(c1O)CC[C@H]1C3=C(CC[C@]21C)C(=O)OC3 [TRIPTOPHENOLIDE]
Androgen receptor
  fold change (FC): 3
PC-3
  inhibition: Dose-dependent effect
